Measured values reported in PubChem BioAssay AID504840 (Johns Hopkins Ion Channel Center, 2011).
This is a selection; strong and weak results do not stand in their true shares. Entries with a potency or affinity are not part of this list. Activity calls are given as the source filed them.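 Rule for the calls: active = inhibition of the choline-evoked signal at any tested dose together with a fitted dose-response curve; inactive = no inhibition at any dose or no curve.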

Sequences of proteins named here, by UniProt entry; tags and fusion partners are left off. A change or cut given only in a name is not applied to a line headed by its entry.
UniProt Q9GZV3, whole entry, stated change not applied: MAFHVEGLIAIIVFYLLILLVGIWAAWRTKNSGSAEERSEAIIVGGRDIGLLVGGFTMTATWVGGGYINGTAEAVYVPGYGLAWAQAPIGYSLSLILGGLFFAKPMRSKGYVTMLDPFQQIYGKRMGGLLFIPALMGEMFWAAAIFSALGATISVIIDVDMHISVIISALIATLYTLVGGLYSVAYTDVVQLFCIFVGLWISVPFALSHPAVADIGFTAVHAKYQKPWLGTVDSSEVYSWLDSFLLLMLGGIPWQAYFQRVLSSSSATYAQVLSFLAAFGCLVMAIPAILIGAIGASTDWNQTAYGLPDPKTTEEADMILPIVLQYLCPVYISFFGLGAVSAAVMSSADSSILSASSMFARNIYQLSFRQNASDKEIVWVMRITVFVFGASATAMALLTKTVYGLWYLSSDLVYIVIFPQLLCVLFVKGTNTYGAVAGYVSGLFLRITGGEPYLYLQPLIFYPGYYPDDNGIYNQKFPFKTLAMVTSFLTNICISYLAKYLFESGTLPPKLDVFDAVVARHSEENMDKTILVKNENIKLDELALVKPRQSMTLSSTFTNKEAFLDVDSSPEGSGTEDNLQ

Each compound was assayed against High affinity choline transporter 1 (Homo sapiens) (UniProt Q9GZV3) (assay: CHT inhibitors, dose response, cell-based, 5-point CRC, membrane potential dye (AID 504840;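 note: 0% = buffer-only response and 100% = EC90 choline response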)). Details: HEK293-CHT, choline-induced depolarization, CHT with LV-to-AA double alanine mutation; at 37 µM (top of the series).

Row | SMILES | inhibition
1 | O=[N+]([O-])c1cc([N+](=O)[O-])c(Nc2ccccn2)c([N+](=O)[O-])c1 | inactive: 45.4%
2 | CC1=NCCc2c1[nH]c1ccccc21.O=[N+]([O-])c1cc([N+](=O)[O-])c(O)c([N+](=O)[O-])c1 | inactive: 42.5%
